# According to PubChem BioAssay AID651768 (National Center for Advancing Translational Sciences (NCATS), 2012):
# Amino acid sequences for entries named in this document (tags omitted).
# UniProt Q14191, whole entry: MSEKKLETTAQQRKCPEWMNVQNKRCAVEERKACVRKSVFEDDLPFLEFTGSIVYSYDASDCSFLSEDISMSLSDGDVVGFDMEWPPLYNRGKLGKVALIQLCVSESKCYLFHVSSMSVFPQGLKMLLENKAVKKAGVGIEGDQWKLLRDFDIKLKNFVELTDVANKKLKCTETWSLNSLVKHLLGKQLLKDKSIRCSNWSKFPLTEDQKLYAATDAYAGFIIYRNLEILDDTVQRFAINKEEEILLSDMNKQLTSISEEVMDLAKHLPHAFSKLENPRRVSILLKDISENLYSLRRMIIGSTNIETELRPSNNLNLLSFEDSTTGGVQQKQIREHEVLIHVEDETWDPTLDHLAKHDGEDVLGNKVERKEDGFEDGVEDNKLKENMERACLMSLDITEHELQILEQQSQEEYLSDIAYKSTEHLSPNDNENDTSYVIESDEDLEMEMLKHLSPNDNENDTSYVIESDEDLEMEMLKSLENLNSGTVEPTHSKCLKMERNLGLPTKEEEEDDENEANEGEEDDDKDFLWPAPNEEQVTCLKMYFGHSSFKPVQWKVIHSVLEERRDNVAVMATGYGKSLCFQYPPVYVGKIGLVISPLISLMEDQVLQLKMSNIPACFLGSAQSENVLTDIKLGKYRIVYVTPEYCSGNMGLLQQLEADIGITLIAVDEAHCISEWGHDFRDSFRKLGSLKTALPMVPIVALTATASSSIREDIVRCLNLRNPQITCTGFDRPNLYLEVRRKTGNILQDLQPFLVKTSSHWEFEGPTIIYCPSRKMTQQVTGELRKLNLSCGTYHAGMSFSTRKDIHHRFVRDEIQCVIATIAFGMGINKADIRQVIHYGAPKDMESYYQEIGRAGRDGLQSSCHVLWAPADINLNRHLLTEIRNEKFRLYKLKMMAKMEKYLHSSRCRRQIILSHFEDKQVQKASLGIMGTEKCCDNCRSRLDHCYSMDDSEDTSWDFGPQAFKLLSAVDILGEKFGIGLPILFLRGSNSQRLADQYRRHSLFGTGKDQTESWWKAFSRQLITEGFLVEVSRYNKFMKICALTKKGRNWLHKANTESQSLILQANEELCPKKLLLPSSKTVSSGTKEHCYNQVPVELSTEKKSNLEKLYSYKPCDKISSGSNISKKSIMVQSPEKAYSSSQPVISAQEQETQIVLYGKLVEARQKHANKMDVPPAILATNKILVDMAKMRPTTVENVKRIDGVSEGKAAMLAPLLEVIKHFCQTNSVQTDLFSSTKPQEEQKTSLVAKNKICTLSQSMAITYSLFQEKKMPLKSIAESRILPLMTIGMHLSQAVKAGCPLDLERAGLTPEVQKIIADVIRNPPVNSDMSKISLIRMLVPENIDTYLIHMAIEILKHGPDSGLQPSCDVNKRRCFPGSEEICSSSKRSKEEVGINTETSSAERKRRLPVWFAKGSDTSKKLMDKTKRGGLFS
# The list shows a part of the results, in another mix than the full data. Calls of active or inactive are those of the source. Calls follow the shape of the dose curve; as a rule, active = well fitted inhibition curve with a large enough effect; inconclusive = small, poorly fitted or top-dose-only effect; inactive = no such curve, though single readings can be large or run the other way.
# Target: Bifunctional 3'-5' exonuclease/ATP-dependent helicase WRN (Homo sapiens) (UniProt Q14191)
# Assay: qHTS for Inhibitors of WRN Helicase; also: nearly all actives have a fitted effect of over 55% in size
# Conditions: WRN helicase unwinding, fluorescent forked duplex, kinetic; at 114 µM (top of the series) unless noted
# In short: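 WRN at 20 nM final was preincubated with compound for 15 min at room temperature; reaction started with 100 nM forked duplex oligonucleotide carrying fluorophore and quencher plus 2 mM ATP (final). Unwinding followed kinetically by red fluorescence (ex 525/em 598 nm).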
# % is scaled to controls: 0 for no effect and ±100 for the full control effect.
row,Compound,"activity change, negative = inhibition"
1,O=C(O)C1(Nc2ccccc2)CCN(Cc2ccccc2)CC1,inactive: -0.164%
2,CC(C)(C)OC(=O)N1CCC(Nc2ccccc2)CC1,inactive: -1.15%
3,O=c1[nH]c2ccccc2n1C1CCN(C(c2cc3ccccc3o2)c2nnnn2C2CCCC2)CC1 (stereo not given),inactive: -3.87%
4,CCCOc1ccc(C(=O)NCC2(N(C)C)CCCCC2)cc1,inactive: -13.9% [at 57.1 µM]
5,CN1CCC(Nc2ccc(F)c(Cl)c2)CC1,inactive: -33.4%
6,CCOc1ncccc1C(=O)NCC1(N2CCOCC2)CCCCC1,inactive: 3.13%
7,CN1CCC(Nc2ccc(Cl)cc2)CC1,inactive: 0.944%
8,COc1cccc(C(=O)N(c2cc(C)cc(C)c2)C2CCN(C(=O)OC(C)(C)C)CC2)c1,inactive: -14.6%
9,COc1cccc(C(c2nnnn2C2CCCC2)N2CCC(n3c(=O)[nH]c4ccccc43)CC2)c1OC (stereo not given),inactive: -5.06%
10,COc1cc(OC)cc(C(=O)NCC2(N3CCOCC3)CCCCC2)c1,inactive: -6.51%
11,CCC(CO)(C(=O)OC1CN2CCC1CC2)c1ccccc1 (stereo not given),inactive: 0.988%
12,Fc1ccccc1NC1CCN(Cc2ccccc2)CC1,inactive: 0.0313%
13,Cc1ccc(Nc2c([N+](=O)[O-])cc([N+](=O)[O-])cc2[N+](=O)[O-])cc1,inactive: -3.99%
14,Cc1ccc(C(=O)NCC2(N3CCCCC3)CCCCC2)o1,inactive: -5.41%
15,Cc1ccc(NC2(C#N)CCN(Cc3ccccc3)CC2)cc1,inactive: -7.36%
16,CCC(c1nnnn1C1CCCCC1)N1CCC(n2c(=O)[nH]c3ccccc32)CC1 (stereo not given),inactive: -8.77%
17,COc1cccc(C(c2nnnn2C2CCCCC2)N2CCC(n3c(=O)[nH]c4ccccc43)CC2)c1OC (stereo not given),inactive: -6.12%
18,CC(=O)N(c1ccccc1)C1CCNCC1,inactive: -0.0198%
19,COc1cc(OC)cc(C(=O)NCC2(N3CCCCC3)CCCCC2)c1,inactive: -0.0938%
20,O=c1[nH]c2ccccc2n1C1CCN(C(c2ccnc3ccccc23)c2nnnn2C2CCCCC2)CC1 (stereo not given),inactive: 1.79%

row,Compound,"activity change, negative = inhibition"
1,CN(C)c1ccc(C(=O)NCC2(N3CCCCC3)CCCCC2)cc1,inactive: -0.721%
2,Cn1c(=O)[nH]cc(N(CCCl)CCCl)c1=O,inactive: -10.7%
3,O=C(NCC1(N2CCCCC2)CCCCC1)c1ccco1,inactive: 11.5%
4,CCN1CCC(Nc2cccc(F)c2)CC1,inactive: -3.85%
5,COc1ccc(C(c2nnnn2C2CCCCC2)N2CCC(n3c(=O)[nH]c4ccccc43)CC2)cc1 (stereo not given),inactive: -1.87%
6,CC(C)(C)n1nnnc1C(c1ccnc2ccccc12)N1CCC(n2c(=O)[nH]c3ccccc32)CC1 (stereo not given),inactive: 2.31%
7,Cc1ccccc1NC1(C#N)CCN(Cc2ccccc2)CC1,inactive: 10.3%
8,CCOC(=O)N1CCC(Nc2ccc(F)cc2)CC1,inactive: 4.7%
9,COc1ccc(NC2CCN(CCc3ccccc3)CC2)c(OC)c1,inactive: -15.9%
10,CCCCOc1ccc(C(=O)NCC2(N3CCOCC3)CCCCC2)cc1,inactive: -33.1%
11,O=P1(N(CCCl)CCCl)SCCCS1,inactive: 0.565%
12,CCCCn1nnnc1C(c1cc2ccccc2o1)N1CCC(n2c(=O)[nH]c3ccccc32)CC1 (stereo not given),inactive: -7.58%
13,O=C(NCC1(N2CCCCC2)CCCCC1)c1ccc(F)cc1,inactive: 4.96%
14,O=C1CCN(Cc2ccccc2)CC1,inactive: -0.279%
15,CC(C)(C)n1nnnc1C(c1ccccc1)N1CCC(n2c(=O)[nH]c3ccccc32)CC1 (stereo not given),inactive: 2.9%
16,CCOC(=O)N1CCC(Nc2cccc(C)c2)CC1,inactive: 1.66%
17,COc1cc(C(=O)NCC2(N(C)C)CCCCC2)ccc1OC(F)F,inactive: 18.2%
18,O=c1[nH]c2ccccc2n1C1CCN(C(c2cccc3ccccc23)c2nnnn2C2CCCC2)CC1 (stereo not given),inactive: -6.69%
19,O=c1[nH]c2ccccc2n1C1CCN(C(c2ccccc2)c2nnnn2C2CCCCC2)CC1 (stereo not given),inactive: -7.01%
20,Cc1cccc(NC2(C#N)CCN(Cc3ccccc3)CC2)c1,inactive: 9.58%

row,Compound,"activity change, negative = inhibition"
1,CSc1ccccc1C(=O)NCC1(N2CCCCC2)CCCCC1,inactive: -6.42%
2,CC(C)(C)OC(=O)N1CCC(N(C(=O)c2ccccc2)c2ccc(F)cc2)CC1,inactive: -2.16%
3,COc1ccc(C(=O)NCC2(N3CCCCC3)CCCCC2)c(OC)c1OC,inactive: 0.275%
4,CCC(c1nnnn1C1CCCC1)N1CCC(n2c(=O)[nH]c3ccccc32)CC1 (stereo not given),inactive: -6.21%
5,COc1ccc(C(=O)NCC2(N3CCCCC3)CCCCC2)cc1,inactive: 6.43%
6,O=C(NCC1(N2CCCCC2)CCCCC1)c1cccs1,inactive: -27%
7,CCCCn1nnnc1C(CC)N1CCC(n2c(=O)[nH]c3ccccc32)CC1 (stereo not given),inactive: -0.789%
8,CCCCn1nnnc1C(c1cccs1)N1CCC(n2c(=O)[nH]c3ccccc32)CC1 (stereo not given),inactive: -1.61%
9,O=C(NCC1(N2CCCCC2)CCCCC1)c1ccc(=O)[nH]c1,inactive: 9.26%
10,COc1ccc(Cl)cc1C(=O)NCC1(N2CCOCC2)CCCCC1,inactive: -4.02%
11,N#CC1(Nc2ccccc2)CCN(Cc2ccccc2)CC1,inactive: 0.776%
12,O=C(NCC1(N2CCCCC2)CCCCC1)c1ccc(Cl)s1,inactive: 3.38%
13,O=c1[nH]c2ccccc2n1C1CCN(C(c2cc3ccccc3o2)c2nnnn2C2CCCCC2)CC1 (stereo not given),inactive: -2.57%
14,O=C(OC1CN2CCC1CC2)C1c2ccccc2Oc2ccccc21 (stereo not given),inactive: -0.612%
15,CCCCn1nnnc1C(c1ccc(OC)cc1)N1CCC(n2c(=O)[nH]c3ccccc32)CC1 (stereo not given),inactive: 0.814%
16,CCOC(=O)N1CCC(Nc2ccc(OC)cc2)CC1,inactive: 2.61%
17,Cc1cc(C)cc(N(C(=O)c2ccccc2)C2CCN(C(=O)OC(C)(C)C)CC2)c1,inactive: 0.57%
18,O=C(NCC1(N2CCCCC2)CCCCC1)c1ccc(Cl)nc1,inactive: -3.36%
19,O=c1[nH]c2ccccc2n1C1CCN(C(c2ccccc2OC(F)(F)F)c2nnnn2C2CCCCC2)CC1 (stereo not given),inactive: -4.88%
20,O=C(NCC1(N2CCOCC2)CCCCC1)c1cc2ccccc2o1,inactive: -6.67%
